Literature values in PMC3983361.

Amino acid sequences for entries named in this document (tags omitted). Residues count along the entry.
UniProt P05067, 672-711: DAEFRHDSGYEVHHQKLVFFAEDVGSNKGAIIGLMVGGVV
UniProt P02649, 19-317: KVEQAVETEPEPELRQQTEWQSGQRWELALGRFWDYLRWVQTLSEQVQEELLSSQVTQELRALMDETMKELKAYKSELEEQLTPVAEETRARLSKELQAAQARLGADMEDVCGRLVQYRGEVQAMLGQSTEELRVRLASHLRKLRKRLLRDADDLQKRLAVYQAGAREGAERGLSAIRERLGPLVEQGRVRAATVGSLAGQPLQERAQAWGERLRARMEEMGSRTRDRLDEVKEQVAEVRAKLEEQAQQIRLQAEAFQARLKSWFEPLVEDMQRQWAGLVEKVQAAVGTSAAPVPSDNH

Molecular target: Aβ40 (Homo sapiens) (UniProt P05067)

apoE (from UniProt P02649)
Kd: 20 nM
